In the experiment the target is T1, cytochrome b (Pfbc1 complex) (Plasmodium falciparum, UniProt Q02768).
T1 construct: gene MT-CYB; native bc1 complex in DDM-treated mitochondrial fraction from P. falciparum Dd2_R539T; with other subunits of the cytochrome bc1 complex
Nature of the experiment: bc1 activity in extracted parasite mitochondria (decylubiquinol-driven cytochrome c reduction). It is filed as biochemical.

Amino acid sequences for entries named in this document (tags omitted). A change or cut given only in a name is not applied to a line headed by its entry.
UniProt Q02768: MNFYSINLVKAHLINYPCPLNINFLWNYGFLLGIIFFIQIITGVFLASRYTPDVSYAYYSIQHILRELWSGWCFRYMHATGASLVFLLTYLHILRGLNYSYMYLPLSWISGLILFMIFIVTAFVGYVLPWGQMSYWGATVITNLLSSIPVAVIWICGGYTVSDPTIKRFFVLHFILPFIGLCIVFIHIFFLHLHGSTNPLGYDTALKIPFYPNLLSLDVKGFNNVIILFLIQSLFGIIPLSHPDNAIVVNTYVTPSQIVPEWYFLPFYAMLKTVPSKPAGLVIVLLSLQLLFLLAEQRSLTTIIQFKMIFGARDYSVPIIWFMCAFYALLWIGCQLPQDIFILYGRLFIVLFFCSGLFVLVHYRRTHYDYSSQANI

pEC50: −log10 of the molar value.

As usually defined, the pEC50 is the EC50 on a negative log10 scale, so that one unit is a factor of ten.

As for `O=C1C(O)=C([C@H]2CC[C@H](c3ccc(Cl)cc3)CC2)C(=O)c2ccccc21` [ATQ, atovaquone], the pEC50 was 7.79.

The record behind these values is paper PMC11522906, “Pyrimidine Azepine Targets the Plasmodium bc1 Complex and Displays Multistage Antimalarial Activity” (JACS Au, 2024).
